Values of other authors, collected in patent publication US20120239131A1, “METHODS AND APPARATUS FOR TREATMENT OF ANEURYSMAL TISSUE” (Medtronic Vascular, Inc., priority 2011, published 2012).

Settings: in vivo; cited from earlier work

Question: Which Route of clearance/elimination does the source give for `NCCCC[C@H](N[C@@H](CCc1ccccc1)C(=O)O)C(=O)N1CCC[C@H]1C(=O)O` [Lisinopril, lisinopril] here?
Answer: cleared as the intact compound in the kidney
